From US20080318246

Tested on: P2, Ac-GRTGRRDap(Pyr)SYP-amide (unphosphorylated PKA substrate)

For “cAMP-dependent protein kinase (PKA), murine catalytic subunit”, the Km was “Km=7.1±1.9 µM” and the Vmax was “Vmax=8.4±1.2 µmol/min-mg”.
